Assay results: patent US20190119284A1, “ErbB Inhibitors and Uses Thereof” (The Regents of the University of California, priority 2016, published 2019)

Amino acid sequences for entries named in this document (tags omitted).
UniProt P04626, whole entry Y1005F/Y1023F/Y1112F/Y1127F/Y1139F/Y1196F/Y1221F/Y1222F/Y1248F: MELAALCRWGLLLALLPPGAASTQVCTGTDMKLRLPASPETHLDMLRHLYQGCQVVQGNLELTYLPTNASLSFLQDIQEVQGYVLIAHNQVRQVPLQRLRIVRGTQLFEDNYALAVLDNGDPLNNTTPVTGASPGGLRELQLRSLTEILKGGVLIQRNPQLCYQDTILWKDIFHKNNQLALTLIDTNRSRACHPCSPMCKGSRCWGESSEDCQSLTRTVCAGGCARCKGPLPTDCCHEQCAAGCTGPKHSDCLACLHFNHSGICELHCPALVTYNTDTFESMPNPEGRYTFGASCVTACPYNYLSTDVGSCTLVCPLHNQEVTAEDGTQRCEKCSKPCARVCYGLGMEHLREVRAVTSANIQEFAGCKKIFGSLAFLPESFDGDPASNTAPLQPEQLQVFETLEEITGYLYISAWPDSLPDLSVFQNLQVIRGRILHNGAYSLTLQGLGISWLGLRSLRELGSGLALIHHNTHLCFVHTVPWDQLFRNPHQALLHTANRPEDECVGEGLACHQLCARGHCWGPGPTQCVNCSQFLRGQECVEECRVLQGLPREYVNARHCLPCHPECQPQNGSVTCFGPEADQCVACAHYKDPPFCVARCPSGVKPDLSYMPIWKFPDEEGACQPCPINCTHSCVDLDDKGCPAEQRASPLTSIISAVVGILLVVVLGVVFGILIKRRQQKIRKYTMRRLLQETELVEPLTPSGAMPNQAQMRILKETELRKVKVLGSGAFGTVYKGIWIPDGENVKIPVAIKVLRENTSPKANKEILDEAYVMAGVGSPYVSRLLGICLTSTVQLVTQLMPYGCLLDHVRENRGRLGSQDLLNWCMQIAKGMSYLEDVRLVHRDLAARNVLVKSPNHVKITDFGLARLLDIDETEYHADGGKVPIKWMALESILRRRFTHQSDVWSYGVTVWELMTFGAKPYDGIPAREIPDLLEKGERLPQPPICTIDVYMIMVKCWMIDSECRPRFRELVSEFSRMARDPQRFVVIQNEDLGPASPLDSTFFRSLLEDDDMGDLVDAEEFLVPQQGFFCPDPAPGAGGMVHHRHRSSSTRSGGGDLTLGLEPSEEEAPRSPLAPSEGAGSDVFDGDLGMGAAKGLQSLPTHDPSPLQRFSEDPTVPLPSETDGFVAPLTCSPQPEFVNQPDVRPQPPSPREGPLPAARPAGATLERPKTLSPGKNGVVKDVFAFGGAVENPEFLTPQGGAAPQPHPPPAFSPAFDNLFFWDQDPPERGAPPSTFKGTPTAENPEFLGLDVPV
UniProt P30530, whole entry: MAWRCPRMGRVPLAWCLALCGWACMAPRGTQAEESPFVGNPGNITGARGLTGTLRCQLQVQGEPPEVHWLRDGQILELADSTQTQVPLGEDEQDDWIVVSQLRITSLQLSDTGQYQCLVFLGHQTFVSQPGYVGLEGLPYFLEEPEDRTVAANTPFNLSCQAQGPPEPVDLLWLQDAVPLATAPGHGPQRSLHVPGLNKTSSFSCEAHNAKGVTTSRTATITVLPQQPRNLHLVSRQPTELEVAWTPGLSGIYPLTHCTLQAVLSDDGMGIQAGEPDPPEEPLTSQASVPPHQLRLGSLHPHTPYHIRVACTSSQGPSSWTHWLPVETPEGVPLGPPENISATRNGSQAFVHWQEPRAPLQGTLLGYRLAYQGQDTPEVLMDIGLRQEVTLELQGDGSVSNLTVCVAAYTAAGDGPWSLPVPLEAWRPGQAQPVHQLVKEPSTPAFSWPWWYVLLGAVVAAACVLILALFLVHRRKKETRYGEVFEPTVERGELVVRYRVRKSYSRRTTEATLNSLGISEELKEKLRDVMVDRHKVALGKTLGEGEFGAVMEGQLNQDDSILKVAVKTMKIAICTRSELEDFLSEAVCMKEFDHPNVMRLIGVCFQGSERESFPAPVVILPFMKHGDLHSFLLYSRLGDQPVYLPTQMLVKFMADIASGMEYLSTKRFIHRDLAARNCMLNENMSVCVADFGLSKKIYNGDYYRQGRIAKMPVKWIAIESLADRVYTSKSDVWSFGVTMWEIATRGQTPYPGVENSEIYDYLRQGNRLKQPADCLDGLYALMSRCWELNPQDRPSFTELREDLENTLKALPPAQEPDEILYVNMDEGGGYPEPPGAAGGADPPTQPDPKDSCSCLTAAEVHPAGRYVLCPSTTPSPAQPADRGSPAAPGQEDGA

Columns and labels:
HER2+/2VE Ba/F3 line = experiment: Ba/F3 proliferation assay, HER2+/2VE; conditions: read-out: Ba/F3 line IC50, HER2+/2VE; Tables 7 and 8
[1] = target: 2YF/3wt + NRG Ba/F3 cells (HER2YF/HER3wt) (Homo sapiens, UniProt P04626, Y1005F/Y1023F/Y1112F/Y1127F/Y1139F/Y1196F/Y1221F/Y1222F/Y1248F, cells depend on it); experiment: Ba/F3 proliferation assay, 2YF/3wt + NRG; conditions: read-out: Ba/F3 line IC50, HER2YF/HER3 + NRG; Tables 7 and 8
Axl+ Ba/F3 cells = Axl+ Ba/F3 cells (Homo sapiens, UniProt P30530); experiment: Ba/F3 proliferation assay, Axl+; conditions: read-out: Ba/F3 line IC50, Axl+; Tables 7 and 8
[2] = system: parental Ba/F3 cells + IL-3; experiment: Ba/F3 proliferation assay, Parental + IL-3; conditions: read-out: Ba/F3 line IC50, Parental + IL-3; Tables 7 and 8

COc1ccc(C2CCCCC2)cc1Nc1ncnc2[nH]nc(-c3ccsc3)c12
> 10 µM: IC50 (HER2+/2VE Ba/F3 line) | GI50 [1] | GI50 (Axl+ Ba/F3 cells) | IC50 [2]
